The nature of this assay: POV (peroxide value) reduction in mixed citrus oil. Conditions: DMESi 0.2614 g; for Reduction in POV (%): vs untreated.

For the substance Dimethylethylsilane, the “POV (mmol/L) of treated” value is, setting by setting: (0 d since addition) 53.69 mmol/L; (0.04 d since addition) 39.17 mmol/L; (1.24 d since addition) 41.85 mmol/L; (5 d since addition) 49.28 mmol/L; (14 d since addition) 45.98 mmol/L. Besides, the “Reduction in POV (%)” value (0 d since addition) came to 0.00%; the “Reduction in POV (%)” value (0.04 d since addition) worked out at 27.04%; the “Reduction in POV (%)” value (1.24 d since addition) is 29.19%; the “Reduction in POV (%)” value (5 d since addition) is given as 29.66%; the “Reduction in POV (%)” value (14 d since addition) was determined as 26.69%.

The values above are taken from patent US12435294B2, “Prevention of the oxidation of perfumery raw materials and food raw materials” (Firmenich SA, priority 2018, dated 2025).
